Earlier results in PMC10451079.

Target: megalin (Homo sapiens) (UniProt P98164)

RBP (from UniProt P02753)
Kd: 1.8 µM
